Amino acid sequences for entries named in this document (tags omitted).
UniProt P33535, whole entry: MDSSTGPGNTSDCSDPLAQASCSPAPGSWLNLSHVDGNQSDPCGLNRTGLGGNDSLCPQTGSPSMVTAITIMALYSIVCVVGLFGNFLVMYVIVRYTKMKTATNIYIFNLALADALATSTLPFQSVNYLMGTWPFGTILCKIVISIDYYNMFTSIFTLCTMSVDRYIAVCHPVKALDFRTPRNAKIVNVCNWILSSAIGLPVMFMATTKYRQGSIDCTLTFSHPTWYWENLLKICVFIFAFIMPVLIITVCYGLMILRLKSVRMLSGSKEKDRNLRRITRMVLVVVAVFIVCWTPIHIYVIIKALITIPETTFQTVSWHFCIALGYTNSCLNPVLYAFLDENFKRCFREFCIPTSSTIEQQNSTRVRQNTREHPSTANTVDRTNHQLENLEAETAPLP

In BindingDB's records for PubMed 3033464 (Burroughs Wellcome, 1987):

Target: Mu-type opioid receptor (Rattus norvegicus, UniProt P33535)

Structure (SMILES): C[C@@H](NC(=O)[C@@H](N)Cc1ccc(O)cc1)C(=O)NCC(=O)N(C)[C@@H](Cc1ccccc1)C(=O)NCCO [[tyrosyl-3,5-3H(N)]-D-Ala2-Mephe4-glyol5-enkephalin]
- Ki: 1.9 nM
